Measurements: patent publication US20160192658A1 (priority 2013, published 2016)

System: RS virus strain A2
Assay: microbe, parasite or virus in culture
Conditions: human respiratory syncytial virus, HEp-2, 120 h, read-out: IC50 (50% infection inhibitory concentration)

IC50: 13.4 µM
Structure (SMILES): NC(=O)c1ncn([C@@H]2O[C@H](CO)[C@@H](O)[C@H]2O)n1 [Ribavirin, ribavirin]
